Only a part of the results on these compounds is given; other tests are left out.
How the values were obtained:
GLP-1R = GLP-1R (Homo sapiens, UniProt P43220); assay: GLP-1R activation: cAMP increase in CHO cells stably expressing GLP-1R; format: cell-based; settings: 10 point dose response, 30 minutes incubation
[1] = Microsomal stability, human liver microsomes (predicted hepatic clearance); settings: predicted from in vitro microsomal stability data

Chains of the proteins cited; added tags and fusions are not shown. Residues count along the entry.
UniProt P43220, 24-463 limits assumed: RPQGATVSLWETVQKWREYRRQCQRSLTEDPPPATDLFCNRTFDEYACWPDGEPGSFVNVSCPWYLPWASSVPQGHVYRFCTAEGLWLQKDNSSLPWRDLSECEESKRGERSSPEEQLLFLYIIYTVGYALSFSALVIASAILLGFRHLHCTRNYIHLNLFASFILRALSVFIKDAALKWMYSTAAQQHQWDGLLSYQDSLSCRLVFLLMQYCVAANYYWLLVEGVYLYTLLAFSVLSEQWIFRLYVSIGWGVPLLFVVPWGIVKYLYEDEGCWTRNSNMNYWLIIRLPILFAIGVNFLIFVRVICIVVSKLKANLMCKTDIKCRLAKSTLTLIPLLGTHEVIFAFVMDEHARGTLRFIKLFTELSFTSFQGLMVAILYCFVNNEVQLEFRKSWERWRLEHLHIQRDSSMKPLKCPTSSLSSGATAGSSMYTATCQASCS

With `N#Cc1ccc(COc2cccc(-c3cc(F)c(Cc4nc5ccc(C(=O)O)cc5n4CC4(N)CC4)cc3F)n2)c(F)c1` the EC50 (GLP-1R) was 0.8 nM and the “Predicted Hepatic Clearance (Pred. Cl.)” value [1] was 2.33 mL/min/kg.

For `N#Cc1ccc(COc2cccc(-c3cc(F)c(Cc4nc5ccc(C(=O)O)cc5n4CC45CC(CN4)C5)cc3F)n2)c(F)c1`, the EC50 (GLP-1R) was 27.3 nM and the “Predicted Hepatic Clearance (Pred. Cl.)” value [1] was 1.83 mL/min/kg.

In the case of `CO[C@@H]1CNC[C@H]1n1c(Cc2cc(F)c(-c3cccc(OCc4ccc(C#N)cc4F)n3)cc2F)nc2ccc(C(=O)O)cc21`, the EC50 (GLP-1R) is reported as 2.17 nM and the “Predicted Hepatic Clearance (Pred. Cl.)” value [1] is reported as 2.33 mL/min/kg.

With `O=C(O)c1ccc2nc(Cc3ccc(-c4ccc(F)c(OCc5ccc(Cl)cc5F)c4)cc3F)n(CC3CCCN3)c2c1` (centres unmarked) the EC50 (GLP-1R) was 1610 nM and the “Predicted Hepatic Clearance (Pred. Cl.)” value [1] was less than 1.83 mL/min/kg.

With `N#Cc1ccc(COc2cccc(-c3ccc(Cc4nc5ccc(C(=O)O)cc5n4C[C@H]4CCN4)c(F)c3)n2)c(F)c1` the EC50 (GLP-1R) was 88.7 nM and the “Predicted Hepatic Clearance (Pred. Cl.)” value [1] was less than 1.83 mL/min/kg.

With `CNCCn1c(Cc2ccc(-c3ccc(F)c(OCc4ccc(Cl)cc4F)c3)cc2F)nc2ccc(C(=O)O)cc21` the EC50 (GLP-1R) was 666 nM and the “Predicted Hepatic Clearance (Pred. Cl.)” value [1] was less than 1.83 mL/min/kg.

In the case of `CO[C@@H]1CNC[C@@H]1n1c(Cc2cc(F)c(-c3cccc(OCc4ccc(C#N)cc4F)n3)cc2F)nc2ccc(C(=O)O)cc21`, the EC50 (GLP-1R) is reported as 2.83 nM and the “Predicted Hepatic Clearance (Pred. Cl.)” value [1] is reported as 1.83 mL/min/kg.

In the case of `N#Cc1ccc(COc2cccc(-c3cc(F)c(Cc4nc5ccc(C(=O)O)cc5n4CCN4CC(F)C4)cc3F)n2)c(F)c1`, the EC50 (GLP-1R) is reported as 2.27 nM and the “Predicted Hepatic Clearance (Pred. Cl.)” value [1] is reported as 4.83 mL/min/kg.

For `CC(C)(N)Cn1c(Cc2cc(F)c(-c3cccc(OCc4ccc(C#N)cc4F)n3)cc2F)nc2ccc(C(=O)O)cc21`, the EC50 (GLP-1R) was 2.56 nM and the “Predicted Hepatic Clearance (Pred. Cl.)” value [1] was 1.83 mL/min/kg.

With `N#Cc1ccc(COc2cccc(-c3cc(F)c(Cc4nc5ccc(C(=O)O)cc5n4CCN4CCC4)cc3F)n2)c(F)c1` the EC50 (GLP-1R) was 2.59 nM and the “Predicted Hepatic Clearance (Pred. Cl.)” value [1] was less than 1.83 mL/min/kg.

For `N#Cc1ccc(COc2cccc(-c3cc(F)c(Cc4nc5ccc(C(=O)O)cc5n4CCNC4CC4)cc3F)n2)c(F)c1`, the EC50 (GLP-1R) was 2.09 nM and the “Predicted Hepatic Clearance (Pred. Cl.)” value [1] was 4.33 mL/min/kg.

In the case of `O=C(O)c1ccc2nc(Cc3ccc(-c4ccc(F)c(OCc5ccc(Cl)cc5F)c4)cc3F)n(C[C@@H]3CCCN3)c2c1`, the EC50 (GLP-1R) is reported as 159 nM and the “Predicted Hepatic Clearance (Pred. Cl.)” value [1] is reported as less than 1.83 mL/min/kg.

With `CN1CC[C@H]1Cn1c(Cc2ccc(-c3cccc(OCc4ccc(C#N)cc4F)n3)cc2F)nc2ccc(C(=O)O)cc21` the EC50 (GLP-1R) was 14.4 nM and the “Predicted Hepatic Clearance (Pred. Cl.)” value [1] was 2.83 mL/min/kg.

In the case of `CO[C@H]1CNC[C@H]1n1c(Cc2cc(F)c(-c3cccc(OCc4ccc(C#N)cc4F)n3)cc2F)nc2ccc(C(=O)O)cc21`, the EC50 (GLP-1R) is reported as 2.65 nM and the “Predicted Hepatic Clearance (Pred. Cl.)” value [1] is reported as 1.83 mL/min/kg.

With `CN(C)C1(Cn2c(Cc3ccc(-c4cccc(OCc5ccc(C#N)cc5F)n4)cc3F)nc3ccc(C(=O)O)cc32)CC1` the EC50 (GLP-1R) was 3.94 nM and the “Predicted Hepatic Clearance (Pred. Cl.)” value [1] was 8.67 mL/min/kg.

In the case of `CN(C)CCn1c(Cc2ccc(-c3ccc(F)c(OCc4ccc(Cl)cc4F)c3)cc2F)nc2ccc(C(=O)O)cc21`, the EC50 (GLP-1R) is reported as 146 nM and the “Predicted Hepatic Clearance (Pred. Cl.)” value [1] is reported as 5 mL/min/kg.

From patent US11702404B2, “GLP-1R modulating compounds” (priority 2019, dated 2023)
